Measurements from paper PMC8713283 (Journal of Medicinal Chemistry, 2021).

Legend:
[1] = Log D(dec/w) shake flask partition coefficient; type: physicochemical; details: 1,9-decadiene/PBS; 1,9-decadiene and PBS pH 7.4 shake flask partition coefficient
[2] = LPEester – LPEamide by amide–ester matched pairs
P-gp (human MDR1) = experiment: in vitro; details: dog, MDCK-MDR1

SMILES	logD hydrocarbon water [1]	ΔLPE [2]	Papp A→B at 5 µM (P-gp (human MDR1))	Papp B→A at 5 µM (P-gp (human MDR1))	PAMPA Pe
Cc1ncsc1-c1ccc(CNC(=O)[C@@H]2C[C@@H](O)CN2C(=O)[C@@H](NC(=O)CCOCCOCCOCCOC(=O)Cc2ccccc2)C(C)(C)C)cc1 [Compound 20, (S)-14-((2S,4R)-4-Hydroxy-2-((4-(4-methylthiazol-5-yl)benzyl)carbamoyl)pyrrolidine-1-carbonyl)-15,15-dimethyl-12-oxo-3,6,9-trioxa-13-azahexadecyl 2-phenylacetate]	-0.7	0.5	1 ×10⁻⁶ cm/s	18.3 ×10⁻⁶ cm/s	
Cc1ncsc1-c1ccc(CNC(=O)[C@@H]2C[C@@H](O)CN2C(=O)[C@@H](NC(=O)CCOCCOC(=O)Cc2ccccc2)C(C)(C)C)cc1 [Compound 18, 2-(3-(((S)-1-((2S,4R)-4-Hydroxy-2-((4-(4-methylthiazol-5-yl)benzyl)carbamoyl)pyrrolidin-1-yl)-3,3-dimethyl-1-oxobutan-2-yl)amino)-3-oxopropoxy)ethyl 2-phenylacetate]	-0.2	0.5	0.6 ×10⁻⁶ cm/s	39.1 ×10⁻⁶ cm/s	
Cc1ncsc1-c1ccc(CNC(=O)[C@@H]2C[C@@H](O)CN2C(=O)[C@@H](NC(=O)CCCCCOC(=O)Cc2ccccc2)C(C)(C)C)cc1 [Compound 10, 6-(((S)-1-((2S,4R)-4-Hydroxy-2-((4-(4-methylthiazol-5-yl)benzyl)carbamoyl)pyrrolidin-1-yl)-3,3-dimethyl-1-oxobutan-2-yl)amino)-6-oxohexyl 2-phenylacetate]	0.8	1.6	0.9 ×10⁻⁶ cm/s	42.2 ×10⁻⁶ cm/s	6.5 ×10^–6 cm/s
Cc1ncsc1-c1ccc(CNC(=O)[C@@H]2C[C@@H](O)CN2C(=O)[C@@H](NC(=O)CCOCCOCCOC(=O)Cc2ccccc2)C(C)(C)C)cc1 [Compound 19, 2-(2-(3-(((S)-1-((2S,4R)-4-Hydroxy-2-((4-(4-methylthiazol-5-yl)benzyl)carbamoyl)pyrrolidin-1-yl)-3,3-dimethyl-1-oxobutan-2-yl)amino)-3-oxopropoxy)ethoxy)ethyl 2-phenylacetate]	-0.5	1.1		23.7 ×10⁻⁶ cm/s	
